Measurements as given in patent publication US20230287118A1 (published 2023).

Biological target: T1, human CD20 (human, UniProt P11836 1-297)
T1 sequence (looked up): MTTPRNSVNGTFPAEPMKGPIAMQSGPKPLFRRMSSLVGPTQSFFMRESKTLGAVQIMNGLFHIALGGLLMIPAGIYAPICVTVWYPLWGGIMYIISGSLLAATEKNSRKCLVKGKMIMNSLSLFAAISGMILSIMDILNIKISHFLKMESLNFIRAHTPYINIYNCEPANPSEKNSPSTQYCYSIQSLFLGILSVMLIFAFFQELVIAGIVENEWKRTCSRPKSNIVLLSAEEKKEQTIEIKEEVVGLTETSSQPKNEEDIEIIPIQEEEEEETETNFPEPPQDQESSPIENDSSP
Assay: cell-based or functional assay

B1: Obinutuzumab (Gazyva) (antibody, V domains shown)
VH: QVQLVQSGAEVKKPGSSVKVSCKASGYAFSYSWINWVRQAPGQGLEWMGRIFPGDGDTDYNGKFKGRVTITADKSTSTAYMELSSLRSEDTAVYYCARNVFDGYWLVYWGQGTLVTVSS
VL: DIVMTQTPLSLPVTPGEPASISCRSSKSLLHSNGITYLYWYLQKPGQSPQLLIYQMSNLVSGVPDRFSGSGSGTDFTLKISRVEAEDVGVYYCAQNLELPYTFGGGTKVEIK
- EC50 24 h of B cell depletion in normal human whole blood: 79.2 pM
